The source of these data is patent US9255118B2, “Light induced drug release” (UNIVERSITEIT LEIDEN, priority 2010, dated 2016).

“Also recorded” adds a separate entry of the source.

The nature of series [1]: Light-induced cleavage of the Ru-S bond in aqueous solution. Particulars: white light. The series is classed as physicochemical.
For series [2] the following is noted: deionized water, monochromatic blue light, 452 nm.
Series [3] can be described thus: Complex stability at human body temperature in the dark (1H NMR in D2O, 37° C.). The series is classed as physicochemical. On the procedure:
[Ru(terpy)(bpy)(Cl)](Cl) (2.23 mg, 3.97 μmol), compound [6](Cl)2 (2.14 mg, 2.84 μmol) and compound [7](Cl)2 (2.18 mg, 2.71 μmol) were weighed separately into three different NMR tubes. D2O (0.80 mL) was added to each of the NMR tubes and ^1H NMR spectra were taken. The NMR tubes were put into closed pressure tubes and kept in the dark at 37° C. to check the stability of the Ru—Cl and Ru—S bond. ^1H NMR spectra of each of the tubes were taken after 4 hours, 1 day, 3 days and 3 weeks. The NMR tubes were kept in an ice bath during transport in order to temporarily freeze the reaction. In the case of [Ru(terpy)(bpy)(Cl)](Cl), an equilibrium had been reached after four hours, characterized by 10% of [Ru(terpy)(bpy)(Cl)](Cl) and 90% of [Ru(terpy)(bpy)(H2O)](Cl)2. […] After three days, however, there was a few percent of [Ru(terpy)(bpy)(H2O)](Cl)2. After three weeks at 37° C., the ratio between compound [7](Cl)2 and [Ru(terpy)(bpY)(H2O)](Cl)2 was 7:3.
The stability of the Ru—S bond was measured at human body temperature and in the dark. To do so, compound [Ru(tpy)(apy)Cl]Cl, and [Ru(tpy)(apy)(AMet)]Cl2, (compound [13](Cl)2) were dissolved in D2O and kept in the dark at 37° C. The release of the aqua species was measured by ^1H NMR after 4 hours, 1 days, and 3 weeks. […] The stability of the Ru—S bond depends on the nature of the polypyridyl ligands (see Example 2), but in general it is much higher than that of the Ru—Cl bond.

With “[Ru(terpy)(bpy)(D-biotin)](Cl)2 [Compound [7](Cl)2]”, the “photosubstitution of the monodentate sulfur ligand” value in series [1] is given as “photosubstituted by an aqua ligand”. The photosubstitution quantum yield in series [2] is recorded as 0.011(3). The “thermal conversion to aqua complex” value in series [3] (after three days) is reported as “a few percent”; in series [3] (after three weeks), “a few percents”; in series [3] (within one day) it was “no changes were observed; also recorded: does not take place thermally”.
Turning to “[Ru(terpy)(bpy)(L-methionine)](BF4)2 [Compound [8](BF4)2]”, the “photosubstitution of the monodentate sulfur ligand” value in series [1] was “photosubstituted by an aqua ligand”.
Regarding “[Ru(terpy)(bpy)(N-acetyl-L-methionine)](Cl)2 [Compound [6](Cl)2]”, in series [1], the “photosubstitution of the monodentate sulfur ligand” value was “photosubstituted by an aqua ligand”. The photosubstitution quantum yield in series [2] was 0.018(4). Besides, the “thermal conversion to aqua complex” value is reported as “had not been converted; also recorded: no trace” in series [3] (after three weeks) and “does not take place thermally” in series [3] (within one day).
